Test results reported in US20140303090A1, “Smac Mimetic Therapy” (TETRALOGIC PHARMACEUTICALS CORPORATION, priority 2013, published 2014).
Where two headings read alike, the source gives them in different places.

By UniProt entry, the sequences of proteins in these tests, tags left out. Residues count along the entry.
UniProt Q13490, whole entry: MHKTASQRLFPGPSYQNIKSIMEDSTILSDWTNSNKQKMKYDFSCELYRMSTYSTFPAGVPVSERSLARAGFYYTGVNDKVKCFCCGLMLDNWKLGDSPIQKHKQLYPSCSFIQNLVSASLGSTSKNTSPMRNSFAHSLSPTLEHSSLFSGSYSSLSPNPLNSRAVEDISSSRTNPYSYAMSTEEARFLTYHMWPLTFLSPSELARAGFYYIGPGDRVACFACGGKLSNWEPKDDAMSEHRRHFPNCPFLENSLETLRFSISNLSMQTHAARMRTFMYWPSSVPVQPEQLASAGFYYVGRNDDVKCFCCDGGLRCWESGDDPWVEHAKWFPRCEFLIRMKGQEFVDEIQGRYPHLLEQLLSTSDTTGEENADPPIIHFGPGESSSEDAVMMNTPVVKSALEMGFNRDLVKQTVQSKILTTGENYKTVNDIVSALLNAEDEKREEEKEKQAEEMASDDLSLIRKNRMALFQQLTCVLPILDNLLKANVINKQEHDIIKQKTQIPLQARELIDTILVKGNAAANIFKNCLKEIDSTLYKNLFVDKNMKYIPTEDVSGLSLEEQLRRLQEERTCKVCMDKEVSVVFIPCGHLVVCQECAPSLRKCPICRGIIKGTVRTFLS
UniProt Q13490, 253-363 limits assumed: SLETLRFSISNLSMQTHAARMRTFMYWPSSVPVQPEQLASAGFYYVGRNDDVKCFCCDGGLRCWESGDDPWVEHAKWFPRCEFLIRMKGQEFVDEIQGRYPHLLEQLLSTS
UniProt Q13489, whole entry: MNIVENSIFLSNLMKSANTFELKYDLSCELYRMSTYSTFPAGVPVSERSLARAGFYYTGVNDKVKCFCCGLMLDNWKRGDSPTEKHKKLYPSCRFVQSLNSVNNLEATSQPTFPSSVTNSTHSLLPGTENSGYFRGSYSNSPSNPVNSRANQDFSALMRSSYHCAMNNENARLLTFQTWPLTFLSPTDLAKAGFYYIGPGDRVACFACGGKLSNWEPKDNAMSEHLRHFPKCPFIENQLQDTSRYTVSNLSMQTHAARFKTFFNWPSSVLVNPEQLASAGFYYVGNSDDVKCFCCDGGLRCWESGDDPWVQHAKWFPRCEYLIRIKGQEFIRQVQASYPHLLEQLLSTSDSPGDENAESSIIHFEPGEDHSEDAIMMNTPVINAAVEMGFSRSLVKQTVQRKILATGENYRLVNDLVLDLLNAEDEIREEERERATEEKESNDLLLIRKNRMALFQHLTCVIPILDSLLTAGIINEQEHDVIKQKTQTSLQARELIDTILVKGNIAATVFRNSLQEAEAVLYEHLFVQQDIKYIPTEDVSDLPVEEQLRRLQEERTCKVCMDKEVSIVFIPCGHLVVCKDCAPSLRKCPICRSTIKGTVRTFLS

Key:
GFP-cIAP1 = GFP-cIAP1 (Homo sapiens, UniProt Q13490); experiment: GFP-cIAP1 degradation assay (loss of GFP signal, flow cytometry); assay type: cell-based
GFP-cIAP2 = GFP-cIAP2 (Homo sapiens, UniProt Q13489); experiment: GFP-cIAP2 degradation assay (loss of GFP signal, flow cytometry); assay type: cell-based
Method: In this assay, treatment of GFP-cIAP-expressing melanoma cell line A375 with Smac mimetic, Compound 15, for two hours, results in degradation of cIAP-1 and cIAP-2 with concomitant loss of GFP-signal. (FIG. 1) The EC50's for GFP-tagged cIAP-1 and GFP-tagged cIAP-2 proteins were 17±11 nM and 108±46 nM, respectively.

TNF-mediated NF-κB-luc = settings: read-out: Inhibition of TNF-mediated NF-κB-luc @ 2 h, EC50
cIAP1 BIR3 = cIAP1 BIR3 (Homo sapiens, UniProt Q13490); experiment: Fluorescence polarization displacement assay, cIAP1 BIR3; settings: read-out: cIAP1 BIR3, Ki
[1] = read-out: ΔGFP-cIAP1 EC50, 2 h, 2 h, A375 cells
[2] = read-out: ΔGFP-cIAP1 EC50, 24 h, 24 h
[3] = read-out: ΔGFP-cIAP2 EC50, 2 h, 2 h, A375 cells
[4] = read-out: ΔGFP-cIAP2 EC50, 24 h, 24 h

SMILES | EC50 (GFP-cIAP1; [1]) [nM] | EC50 (GFP-cIAP1; [2]) [nM] | EC50 (GFP-cIAP2; [3]) [nM] | EC50 (GFP-cIAP2; [4]) [nM] | EC50 (TNF-mediated NF-κB-luc) [nM] | Ki (cIAP1 BIR3) [nM]
CN[C@@H](C)C(=O)N[C@@H](C)C(=O)N1C[C@@H](O)C[C@H]1Cc1c(-c2[nH]c3cc(F)ccc3c2C[C@@H]2C[C@H](O)CN2C(=O)[C@H](C)NC(=O)[C@H](C)NC)[nH]c2cc(F)ccc12 | 463 | 65 | 3130 | 3880 | 584 | 92
CN[C@@H](C)C(=O)NCC(=O)N1C[C@@H](O)C[C@H]1Cc1c(-c2[nH]c3cc(F)ccc3c2C[C@@H]2C[C@H](O)CN2C(=O)CNC(=O)[C@H](C)NC)[nH]c2cc(F)ccc12 | 2580 | 847 | 4600 | 5300 | 707 | 65
